Results taken from US4481203A, “Composition containing 1-(n-hexylcarbamoyl)-5-fluorouracil and uracil” (priority 1977, dated 1984).
Read-outs that look alike come from different tables or passages of the source.

What was measured:
sarcoma 180 = test: Therapeutic index (LD50/ED50) in mice (Table 5); format: in vivo, male mice of ICR strain; settings: oral
From the text: The LD50 and ED50 values obtained above are used to determine the therapeutic index (LD50 /ED50).

in vivo = settings: mouse, po
Description: (5) The anti-cancer compositions of this invention are tested in mice by the following methods to determine acute toxicity, therapeutic effect and theapeutic index.
Male mice of ICR strain weighing 22±1 g are used, 5 mice in each group. […] Over the following period of three weeks the mice are checked every day for poisoning, body weight and mortality. The LD50 is determined according to the up-and-down method 3 weeks after the administration.

| SMILES | Therapeutic index (LD50/ED50) (sarcoma 180; uracil (b)/(a) mol ratio 0) | Therapeutic index (LD50/ED50) (sarcoma 180; uracil (b)/(a) mol ratio 10) | Therapeutic index (LD50/ED50) (sarcoma 180; uracil (b)/(a) mol ratio 2.5) | LD50 at 504 h (in vivo; LD50) | LD50 at 504 h (in vivo; mice, uracil (b)/(a) mol ratio 0, as amount of 5-fluorouracil (a), read-out: LD50) | LD50 at 504 h (in vivo; mice, uracil (b)/(a) mol ratio 10, as amount of 5-fluorouracil (a), read-out: LD50) |
| --- | --- | --- | --- | --- | --- | --- |
| O=c1[nH]c(=O)n(S(=O)(=O)c2ccccc2)cc1F [Compound 8, 1-Benzenesulfonyl-5-fluorouracil] | 5.0 | 8.9 | – | – | – | – |
| O=c1[nH]c(=O)n(C2CCCO2)cc1F (centres unmarked) [Compound 2, 1-(2-Tetrahydrofuryl)-5-fluorouracil, reference compound] | 5.9 | 24.1 | 22.3 | 446 mg/kg | – | – |
| O=c1[nH]cc(F)c(=O)[nH]1 [Compound 1, 5-Fluorouracil] | – | 16.2 | – | – | – | – |
| CCOCn1cc(F)c(=O)[nH]c1=O [Compound 5, 1-Ethoxymethyl-5-fluorouracil] | – | 14.5 | – | – | – | – |
| CCCC(=O)n1cc(F)c(=O)[nH]c1=O [Compound 10, 1-(n-Butyryl)-5-fluorouracil] | 2.9 | 5.6 | 6.0 | 222 mg/kg | 320 mg/kg | 157 mg/kg |
